# Laboratory results published in ChEMBL document CHEMBL5247678, “Design, Synthesis, and Structure-Activity Relationships of Biaryl Anilines as Subtype-Selective PPAR-alpha Agonists” (ACS Med Chem Lett, 2023).
# The chains behind the UniProt entries cited, without tags or fusion partners. Where a name states a change or a piece, a line headed by the entry shows the natural chain unless it says otherwise.
# UniProt P37231: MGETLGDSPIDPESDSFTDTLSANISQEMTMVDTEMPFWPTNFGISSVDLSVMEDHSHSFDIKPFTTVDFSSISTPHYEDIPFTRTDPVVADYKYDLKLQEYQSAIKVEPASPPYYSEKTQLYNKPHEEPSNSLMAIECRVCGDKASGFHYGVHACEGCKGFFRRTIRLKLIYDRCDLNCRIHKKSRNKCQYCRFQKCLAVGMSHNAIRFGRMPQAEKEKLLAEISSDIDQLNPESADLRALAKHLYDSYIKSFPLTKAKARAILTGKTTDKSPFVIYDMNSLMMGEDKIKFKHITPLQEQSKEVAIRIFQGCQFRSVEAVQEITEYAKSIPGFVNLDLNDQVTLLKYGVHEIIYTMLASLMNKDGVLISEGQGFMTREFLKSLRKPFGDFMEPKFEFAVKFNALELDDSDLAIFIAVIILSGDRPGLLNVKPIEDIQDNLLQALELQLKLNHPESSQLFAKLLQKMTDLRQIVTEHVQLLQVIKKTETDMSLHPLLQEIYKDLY
# Columns and labels:
# [1] = biological target: T1, Peroxisome proliferator-activated receptor delta (Homo sapiens) (UniProt Q03181); experiment: Agonist activity at human PPARdelta at 17 uM incubated for 22 to 24 hrs by luciferase assay relative to GW0742; conditions: time 22-24 hrs
# T1 sequence (whole entry): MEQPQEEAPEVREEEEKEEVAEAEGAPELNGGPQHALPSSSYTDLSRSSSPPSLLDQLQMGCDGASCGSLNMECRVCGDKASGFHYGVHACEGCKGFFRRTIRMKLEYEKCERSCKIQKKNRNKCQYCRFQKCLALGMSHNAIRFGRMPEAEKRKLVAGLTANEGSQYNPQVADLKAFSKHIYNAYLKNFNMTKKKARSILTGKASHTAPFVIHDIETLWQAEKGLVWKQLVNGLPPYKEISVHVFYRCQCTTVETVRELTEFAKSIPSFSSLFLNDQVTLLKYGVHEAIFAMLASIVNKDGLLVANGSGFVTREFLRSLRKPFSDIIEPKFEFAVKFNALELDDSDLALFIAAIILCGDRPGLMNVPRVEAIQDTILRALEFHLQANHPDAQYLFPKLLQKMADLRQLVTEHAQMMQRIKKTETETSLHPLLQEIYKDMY
# [2] = biological target: Peroxisome proliferator-activated receptor gamma (Homo sapiens) (UniProt P37231); experiment: Agonist activity at human PPARgamma at 0.013 to 100 uM incubated for 22 to 24 hrs by luciferase assay relative to rosiglitazone; conditions: dose 0.013-100 µM, time 22-24 hrs
# [3] = biological target: Peroxisome proliferator-activated receptor gamma (Homo sapiens) (UniProt P37231); experiment: Agonist activity at human PPARgamma at 17 uM incubated for 22 to 24 hrs by luciferase assay relative to rosiglitazone; conditions: time 22-24 hrs
# [4] = biological target: T1, Peroxisome proliferator-activated receptor delta (Homo sapiens); experiment: Agonist activity at human PPARdelta at 0.013 to 100 uM incubated for 22 to 24 hrs by luciferase assay relative to GW0742; conditions: dose 0.013-100 µM, time 22-24 hrs
Activity [1],Activity [2],Activity [3],Activity [4],Structure (SMILES)
12%,11.2%,11%,12.1%,O=C(O)c1cc(F)cc(NCc2ccc(-c3ccc(F)cc3)cc2)c1
–,35.7%,–,25.1%,Cc1cc(CNc2cc(F)cc(C(=O)O)c2)ccc1-c1ccc(C(F)(F)F)cc1
–,22.5%,–,31.1%,O=C(O)c1cc(F)cc(NCc2ccc(-c3ccc(C(F)(F)F)cc3)cc2)c1

# More lines, now with the values behind:
Structure (SMILES),Activity [1],Activity [2],Activity [3],Activity [4]
O=C(O)c1cc(F)cc(NCc2ccc(-c3ccc(C(F)(F)F)cc3)nc2)c1,–,19.9%,–,21.1%
O=C(O)c1cc(F)cc(NCc2ccc(-c3ccc(OC(F)(F)F)cc3)cc2)c1,–,9.3%,–,6.1%
